# Reference: patent publication US20200375965A1, “Targeting Lipid Metabolism and Free Fatty Acid (FFA) Oxidation to Treat Diseases Mediated by Resident Memory T Cells (TRM)” (The Brigham and Women's Hospital, Inc., priority 2018, published 2020)
# Tested on: Fabp4 and Fabp5 gene expression in CD8+ TRM
# Conditions: treatment of mice with GW9662, 1 mg/kg intradermal injection
smiles,measurement,value
O=C(Nc1ccccc1)c1cc([N+](=O)[O-])ccc1Cl [GW9662],Fabp4 and Fabp5 gene expression in CD8+ TRM,inhibited
